In patent publication US9051591B2, “Bacterium of enterobacteriaceae family producing L-aspartic acid or L-aspartic acid-derived metabolites and a method for producing L-aspartic acid or L-aspartic acid-derived metabolites” (AJINOMOTO CO., INC., priority 2010, dated 2015):

Assays:
Test in all cases: purified protein, by the assay type
[1] = test system: NADH; details: other: Oxaloacetate reductive amination
[2] = test system: NADPH; details: other: Oxaloacetate reductive amination
[3] = test system: NADP^+
[4] = other: Aspartate oxidative deamination
[5] = other: Aspartic acid oxidative deamination, Michaelis-Menten plots
[6] = other: Aspartic acid oxidative deamination

Substance “Bradyrhizobium japonicum ADH-Bj (Bradyrhizobium diazoefficiens USDA 110)” has a Km [1] of 250 µM, a Vmax [1] of 51 ± 3 µmol/min/mg and a kcat [1] of 26.17 ± 1.5 s⁻¹. For the same substance, the kcat/Km [1] was 103300 M⁻¹ s⁻¹, the Km [2] was 32 µM and the Vmax [2] was 79 ± 3 µmol/min/mg. It also gave a kcat [2] of 40.83 ± 1.67 s⁻¹, a kcat/Km [2] of 1.2833e+06 M⁻¹ s⁻¹ and a Km [3, 4] of 120 ± 20 µM. For the same substance, the Vmax [3, 4] was 12.1 µmol/min/mg, the kcat [3, 4] was 6.17 s⁻¹ and the kcat/Km [3, 4] was 53300 M⁻¹ s⁻¹.
“Polaromonas sp. ADH (Polaromonas sp. JS666)” gave a Km ([1]; Hill kinetic equation plots) of 68 ± 5 µM, a Vmax ([1]; Hill kinetic equation plots) of 80 µmol/min/mg and a kcat ([1]; Hill kinetic equation plots) of 36.8 s⁻¹. It also gave a kcat/Km ([1]; Hill kinetic equation plots) of 550000 M⁻¹ s⁻¹, a Km ([1]; Michaelis-Menten plots) of 190 ± 40 µM and a Vmax ([1]; Michaelis-Menten plots) of 140 µmol/min/mg. For the same substance, the kcat ([1]; Michaelis-Menten plots) was 63.3 s⁻¹, the kcat/Km ([1]; Michaelis-Menten plots) was 350000 M⁻¹ s⁻¹ and the Km ([2]; Hill kinetic equation plots) was 150 ± 20 µM. It also gave a Vmax ([2]; Hill kinetic equation plots) of 54 µmol/min/mg, a kcat ([2]; Hill kinetic equation plots) of 24.8 s⁻¹ and a kcat/Km ([2]; Hill kinetic equation plots) of 167000 M⁻¹ s⁻¹. For the same substance, the Km ([2]; Michaelis-Menten plots) was 400 ± 60 µM, the Vmax ([2]; Michaelis-Menten plots) was 97 µmol/min/mg and the kcat ([2]; Michaelis-Menten plots) was 45 s⁻¹. It also gave a kcat/Km ([2]; Michaelis-Menten plots) of 117000 M⁻¹ s⁻¹, a Km [3, 5] of 510 ± 30 µM and a Vmax [3, 5] of 7.5 µmol/min/mg. The kcat [3, 5] was 3.47 s⁻¹ and the kcat/Km [3, 5] was 6670 M⁻¹ s⁻¹.
In the case of “Rhodopseudomonas palustris ADH1-Rp (Rhodopseudomonas palustris HaA2)”, the Km [1] was 4500 µM, the Vmax [1] was 10.1 ± 0.6 µmol/min/mg and the kcat [1] was 5.17 ± 0.333 s⁻¹. The kcat/Km [1] was 1150 ± 183 M⁻¹ s⁻¹, the Km [2] was 210 µM and the Vmax [2] was 37 µmol/min/mg. For the same substance, the kcat [2] was 19.2 s⁻¹, the kcat/Km [2] was 83300 M⁻¹ s⁻¹ and the Km [3, 6] was 102 ± 11 µM. It also gave a Vmax [3, 6] of 4.57 µmol/min/mg, a kcat [3, 6] of 2.33 s⁻¹ and a kcat/Km [3, 6] of 23300 M⁻¹ s⁻¹.
